From US20260124309A1, “STAT6 DEGRADERS AND USES THEREOF” (Kymera Therapeutics, Inc., priority 2023, published 2026)

Protein sequences, listed by entry. Tags and fused reporters are not part of them. Residues count along the entry.
UniProt P42226, 123-632 limits assumed: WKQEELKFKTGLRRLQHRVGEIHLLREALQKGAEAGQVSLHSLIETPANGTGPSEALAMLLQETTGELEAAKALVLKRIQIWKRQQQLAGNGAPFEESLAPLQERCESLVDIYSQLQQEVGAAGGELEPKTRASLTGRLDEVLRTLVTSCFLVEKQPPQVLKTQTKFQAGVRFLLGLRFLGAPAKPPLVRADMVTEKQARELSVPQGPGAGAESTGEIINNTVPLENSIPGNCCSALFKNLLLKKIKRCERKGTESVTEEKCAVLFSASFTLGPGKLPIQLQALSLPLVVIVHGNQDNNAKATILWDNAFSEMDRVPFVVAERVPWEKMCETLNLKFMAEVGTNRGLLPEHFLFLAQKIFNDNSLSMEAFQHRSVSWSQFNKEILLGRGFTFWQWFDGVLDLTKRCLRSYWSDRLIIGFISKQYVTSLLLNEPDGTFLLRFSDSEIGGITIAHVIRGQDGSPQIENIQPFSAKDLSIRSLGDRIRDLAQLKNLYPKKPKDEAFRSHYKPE
UniProt P42226, whole entry: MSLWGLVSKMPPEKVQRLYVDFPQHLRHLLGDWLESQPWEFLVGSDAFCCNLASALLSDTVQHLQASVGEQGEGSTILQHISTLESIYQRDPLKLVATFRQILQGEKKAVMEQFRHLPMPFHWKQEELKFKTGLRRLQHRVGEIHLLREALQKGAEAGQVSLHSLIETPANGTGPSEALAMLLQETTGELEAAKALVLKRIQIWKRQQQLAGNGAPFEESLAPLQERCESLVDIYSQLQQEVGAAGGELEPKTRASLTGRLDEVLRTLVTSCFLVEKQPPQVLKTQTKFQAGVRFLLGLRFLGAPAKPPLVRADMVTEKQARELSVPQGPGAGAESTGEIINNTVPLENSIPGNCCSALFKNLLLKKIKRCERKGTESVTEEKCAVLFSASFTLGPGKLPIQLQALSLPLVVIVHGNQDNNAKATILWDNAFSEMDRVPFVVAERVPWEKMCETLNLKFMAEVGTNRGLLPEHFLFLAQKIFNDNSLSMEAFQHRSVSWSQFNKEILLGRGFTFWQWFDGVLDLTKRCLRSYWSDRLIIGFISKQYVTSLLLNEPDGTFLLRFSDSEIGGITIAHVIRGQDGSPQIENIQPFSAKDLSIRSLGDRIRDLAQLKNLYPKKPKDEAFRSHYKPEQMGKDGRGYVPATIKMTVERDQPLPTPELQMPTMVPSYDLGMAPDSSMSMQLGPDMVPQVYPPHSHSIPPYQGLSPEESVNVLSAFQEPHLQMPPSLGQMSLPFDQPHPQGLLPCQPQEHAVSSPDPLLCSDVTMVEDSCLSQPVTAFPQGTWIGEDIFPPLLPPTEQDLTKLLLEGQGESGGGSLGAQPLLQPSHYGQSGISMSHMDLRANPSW

biological target: STAT6 (Homo sapiens, UniProt P42226); assay: STAT6 MSD degradation in A549 cells; settings: not given
Description: Degradation of STAT6 in cells was quantitatively measured using Meso Scale Discovery (MSD) technology. A549 cells were seeded in 96-well plates with a density of 1.5×10e4 to 5×10e5 cells per well in 100 μl fresh media. Compounds were then added to the assay plates with a final top concentration of up to 10 uM in a 1:3 dilution series with total of 9 doses. The assay plates were then incubated for 4 to 24 hours at 37° C. under 5% CO2. The assay plates were then centrifuged for 5 minutes and the cell pellets were treated with 100 μl/well RIPA lysis buffer (Boston Bioproducts, BP-115D) with protease and phosphatase inhibitors (Roche, 05892791001 and 04906837001). To prepare the MSD assay plates (MSD, L15XA), the plates were coated with the capture antibody (Abnova, H00006778) in PBS, at 40 μl/well. The plates were then incubated overnight at 4° C., washed 1 time with 150 μl/well TBST buffer (Cell Signaling Technology, #9997S) and blocked with 150 μl/well blocking buffer (MSD, R93BA-4). Cell lysates were then added to MSD assay plates and the plates were incubated at room temperature for 1 hour. The plates were then washed 3 times with 150 μl/well TBST buffer and 25 μl/well primary detection antibody (Cell Signaling Technology, #5397S). The assay plates were then incubated at room temperature for 1 hour, washed 3 times with 150 μl/well TBST buffer, and 25 μl/well secondary detection antibody, SULFO-TAG anti-rabbit antibody (MSD, R32AB-1) were added. The assay plates were then incubated at room temperature for 1 hour, washed 3 times with 150 μl/well TBST buffer, and 150 μl/well MSD reading buffer (MSD, R92TC-2) were added. The plates were then analyzed by an MSD reader. The data was analyzed by GraphPad Prism and the dose dependent STAT6 degradation was fit using the four-parameter inhibitor vs. response nonlinear regression.
The letter codes for DC50 (nM) include: A (<1 nM); B (1-10 nM); C (>10-100 nM); D (>100-1000 nM); E (>1000 nM); and F (not tested). The letter codes for Dmax (oo) include: A (>90%); B (>70-90%); C (>50-70%); D ([…]); and F (not tested).

SMILES	STAT6 MSD degradation Dmax % 24 h
COc1cc(N2CCN(CCCCCCCCCCCN(C(=O)[C@H]3CCCN(c4cncc5ccccc45)C3)c3ccc(=O)n(CC(=O)O)c3)CC2)ccc1-c1cc(C2=CCCN(C(=O)CCn3ccnn3)C2)c(F)c2[nH]c(C(=O)N(C)C)cc12	B (B (>70-90%))

same assay, conditions: read-out: STAT6 MSD degradation DC50 (nM) 24 h

SMILES	DC50
COc1cc(N2CCN(CCCCCCCCCCCN(C(=O)[C@H]3CCCN(c4cncc5ccccc45)C3)c3ccc(=O)n(CC(=O)O)c3)CC2)ccc1-c1cc(C2=CCCN(C(=O)CCn3ccnn3)C2)c(F)c2[nH]c(C(=O)N(C)C)cc12	10 to 100 nM

biological target: biotinylated truncated STAT6 (123-632)-avi (Homo sapiens, UniProt P42226); assay: STAT6 HTRF binding assay; settings: read-out: STAT6 HTRF: Average IC50; HTRF binding, 0.15 nM biotinylated truncated STAT6 (123-632)-avi, 20 nM fluorescein-labeled probe
Description: HTRF binding assays were performed using 0.15 nM biotinylated truncated STAT6 (123-632)-avi purified from E. coli, 1× Streptavidin-terbium (CisBio) prepared by mixing SA-Tb in PPI detection buffer (CisBio), 20 nM proprietary fluorescein-labeled probe, and test compounds in assay buffer consisting of 50 mM HEPES-Na pH 7.5, 100 mM NaCl, 1 mM EDTA, 2 mM DTT, 0.1% Tween-20 with a final volume of 20 uL. Compound stocks were dissolved at 10 mM in 100% DMSO and 11 point titration with 3 fold serial dilution was performed in white, opaque 384 well microplates. Reaction plates were incubated at room temperature for 30 minutes. Plates were centrifuged at low rpm for 5 mins, and the ratio of fluorescence intensities were measured at emission wavelengths for fluorescein acceptor (520 nm) and terbium donor (495 nm) on Envision Plate reader. % Inhibition was calculated from the 520/495 ratio generated by using proprietary positive control compound for 100% inhibition and DMSO only reactions for 0% inhibition. Data was processed and dose response curves were generated using GraphPad Prism to determine the concentration required for inhibiting 50% of the HTRF signal (IC50).
The letter codes for IC50 (μM) include: A (<0.1 μM); B (0.1-1 μM); C (>1-10 μM); D (>10-100 μM); E (>100 μM); and F (not tested).

SMILES	IC50
COc1cc(N2CCN(CCOCCOCC[C@@H]3CN(c4cc(N5CCCCC5)ccn4)[C@@H]4CCCN(c5cccc(F)c5)[C@H]34)CC2)ccc1-c1cc(C2=CCCN(C(=O)CCn3ccnn3)C2)c(F)c2[nH]c(C(=O)N(C)C)cc12 (single isomer, unassigned)	< 100 nM
COc1cc(N2CCN(C3CCN(CC#Cc4ccc(C(=O)c5c(-c6c(F)ccc(F)c6C)c(C(=O)N[C@@H](CS(C)(=O)=O)c6cccc(Cl)c6)cn5C)cc4)CC3)CC2)ccc1-c1cc(C2=CCCN(C(=O)CCn3ccnn3)C2)c(F)c2[nH]c(C(=O)N(C)C)cc12	< 100 nM
COc1cc(N2CCN(CCCCCCCCC3CCN(c4ccnc(N5CC[C@@H]6[C@H]5CCCN6c5cccc(F)c5)c4)CC3)CC2)ccc1-c1cc(C2=CCCN(C(=O)CCn3ccnn3)C2)c(F)c2[nH]c(C(=O)N(C)C)cc12	< 100 nM
COc1cc(N2CCN(CCOCC[C@H]3CN(c4cc(N5CCCCC5)ccn4)[C@@H]4CCCN(c5cccc(F)c5)[C@H]34)CC2)ccc1-c1cc(C2=CCCN(C(=O)CCn3ccnn3)C2)c(F)c2[nH]c(C(=O)N(C)C)cc12 (single isomer, unassigned)	< 100 nM
COc1cc(N2CCN(CCOCCCc3ccc(C(=O)c4[nH]cc(C(=O)N[C@@H](CC(N)=O)c5cccc(Cl)c5)c4-c4c(F)ccc(F)c4C)cc3)CC2)ccc1-c1cc(C2=CCCN(C(=O)CCn3ccnn3)C2)c(F)c2[nH]c(C(=O)N(C)C)cc12	< 100 nM
COc1cc(N2CCN(CCOCCOCCOc3ccc(C(=O)c4c(-c5c(F)ccc(F)c5C)c(C(=O)N[C@@H](CS(C)(=O)=O)c5cccc(Cl)c5)cn4C)cc3)CC2)ccc1-c1cc(C2=CCCN(C(=O)CCn3ccnn3)C2)c(F)c2[nH]c(C(=O)N(C)C)cc12	< 100 nM
COc1cc(N2CCN(CCOCCOCCOCCOCCc3ccc(C(=O)c4[nH]cc(C(=O)N[C@@H](CC(N)=O)c5cccc(Cl)c5)c4-c4c(F)ccc(F)c4C)cc3)CC2)ccc1-c1cc(C2=CCCN(C(=O)CCn3ccnn3)C2)c(F)c2[nH]c(C(=O)N(C)C)cc12	< 100 nM
COc1cc(N2CCN(CCCCCCCCc3ccc(C(=O)c4c(-c5c(F)ccc(F)c5C)c(C(=O)N[C@@H](CC#N)c5cccc(Cl)c5)cn4C)cc3)CC2)ccc1-c1cc(C2=CCCN(C(=O)CCn3ccnn3)C2)c(F)c2[nH]c(C(=O)N(C)C)cc12	< 100 nM
COc1cc(N2CCN(CCCCCCC3CCN(c4ccnc(N5CC[C@@H]6[C@H]5CCCN6c5cccc(F)c5)c4)CC3)CC2)ccc1-c1cc(C2=CCCN(C(=O)CCn3ccnn3)C2)c(F)c2[nH]c(C(=O)N(C)C)cc12	< 100 nM
COc1cc(N2CCN(CCCC3CCN(c4ccnc(N5CC[C@@H]6[C@H]5CCCN6c5cccc(F)c5)c4)CC3)CC2)ccc1-c1cc(C2=CCCN(C(=O)CCn3ccnn3)C2)c(F)c2[nH]c(C(=O)N(C)C)cc12	< 100 nM
COc1cc(N2CCN(CCOCCOCCOCCOCCOCCc3ccc(C(=O)c4[nH]cc(C(=O)N[C@@H](CC(N)=O)c5cccc(Cl)c5)c4-c4c(F)ccc(F)c4C)cc3)CC2)ccc1-c1cc(C2=CCCN(C(=O)CCn3ccnn3)C2)c(F)c2[nH]c(C(=O)N(C)C)cc12	< 100 nM
COc1cc(N2CCN(CCCCCC[C@@H]3[C@@H]4C[C@H]3CN(c3ccnc(N5CC[C@@H]6[C@H]5CCCN6c5cc(F)cc(COC(N)=O)c5)c3)C4)CC2)ccc1-c1cc(C2=CCCN(C(=O)CCn3ccnn3)C2)c(F)c2[nH]c(C(=O)N(C)C)cc12	< 100 nM
COc1cc(N2CCN(CCCCCC[C@H]3[C@@H]4C[C@H]3CN(c3ccnc(N5CC[C@@H]6[C@H]5CCCN6c5cc(F)cc(COC(N)=O)c5)c3)C4)CC2)ccc1-c1cc(C2=CCCN(C(=O)CCn3ccnn3)C2)c(F)c2[nH]c(C(=O)N(C)C)cc12	< 100 nM
COc1cc(N2CCN(CCOCCOCCOCCC3CCN(c4ccnc(N5CC[C@@H]6[C@H]5CCCN6c5cccc(F)c5)c4)CC3)CC2)ccc1-c1cc(C2=CCCN(C(=O)CCn3ccnn3)C2)c(F)c2[nH]c(C(=O)N(C)C)cc12	< 100 nM
COc1cc(N2CCN(CCCCCCCCc3ccc(C(=O)c4c(-c5c(F)ccc(F)c5C)c(C(=O)N[C@@H](CS(C)(=O)=O)c5cccc(Cl)c5)cn4C)cc3)CC2)ccc1-c1cc(C2=CCCN(C(=O)CCn3ccnn3)C2)c(F)c2[nH]c(C(=O)N(C)C)cc12	< 100 nM
COc1cc(N2CCN(CCOCCOCC[C@H]3CN(c4cc(N5CCCCC5)ccn4)[C@H]4CCCN(c5cccc(F)c5)[C@@H]34)CC2)ccc1-c1cc(C2=CCCN(C(=O)CCn3ccnn3)C2)c(F)c2[nH]c(C(=O)N(C)C)cc12 (single isomer, unassigned)	< 100 nM
COc1cc(N2CCN(CCCN(C)CCC3CCN(c4ccnc(N5CC[C@@H]6[C@H]5CCCN6c5cccc(F)c5)c4)CC3)CC2)ccc1-c1cc(C2=CCCN(C(=O)CCn3ccnn3)C2)c(F)c2[nH]c(C(=O)N(C)C)cc12	< 100 nM
COc1cc(N2CCN(CCCCCCc3ccc(C(=O)c4c(-c5c(F)ccc(F)c5C)c(C(=O)N[C@@H](CS(C)(=O)=O)c5cccc(Cl)c5)cn4C)cc3)CC2)ccc1-c1cc(C2=CCCN(C(=O)CCn3ccnn3)C2)c(F)c2[nH]c(C(=O)N(C)C)cc12	< 100 nM
COc1cc(N2CCN(CCOCC[C@@H]3CN(c4cc(N5CCCCC5)ccn4)[C@@H]4CCCN(c5cccc(F)c5)[C@H]34)CC2)ccc1-c1cc(C2=CCCN(C(=O)CCn3ccnn3)C2)c(F)c2[nH]c(C(=O)N(C)C)cc12 (single isomer, unassigned)	< 100 nM
COc1cc(N2CCN(CCOCCOCCOCCOCCC3CCCCN3c3ccnc(N4CC[C@@H]5[C@H]4CCCN5c4cccc(F)c4)c3)CC2)ccc1-c1cc(C2=CCCN(C(=O)CCn3ccnn3)C2)c(F)c2[nH]c(C(=O)N(C)C)cc12 (stereo partly shown)	< 100 nM
COc1cc(N2CCN(CCCCCCC#Cc3ccc(C(=O)c4c(-c5c(F)ccc(F)c5C)c(C(=O)N[C@@H](CS(C)(=O)=O)c5cccc(Cl)c5)cn4C)cc3)CC2)ccc1-c1cc(C2=CCCN(C(=O)CCn3ccnn3)C2)c(F)c2[nH]c(C(=O)N(C)C)cc12	< 100 nM
COc1cc(N2CCN(CCOCC[C@@H]3CN(c4cc(N5CCCCC5)ccn4)[C@H]4CCCN(c5cccc(F)c5)[C@@H]34)CC2)ccc1-c1cc(C2=CCCN(C(=O)CCn3ccnn3)C2)c(F)c2[nH]c(C(=O)N(C)C)cc12 (single isomer, unassigned)	< 100 nM
COc1cc(N2CCN(CCOCCOCCOCCOCCc3c(N4CCCCC4)ccnc3N3CC[C@@H]4[C@H]3CCCN4c3cccc(F)c3)CC2)ccc1-c1cc(C2=CCCN(C(=O)CCn3ccnn3)C2)c(F)c2[nH]c(C(=O)N(C)C)cc12	< 100 nM
COc1cc(N2CCN(CCOCC[C@H]3CN(c4cc(N5CCCCC5)ccn4)[C@H]4CCCN(c5cccc(F)c5)[C@@H]34)CC2)ccc1-c1cc(C2=CCCN(C(=O)CCn3ccnn3)C2)c(F)c2[nH]c(C(=O)N(C)C)cc12 (single isomer, unassigned)	< 100 nM
COc1cc(N2CCN(CCCCCCCCCCCCc3ccc(C(=O)c4c(-c5c(F)ccc(F)c5C)c(C(=O)N[C@@H](CS(C)(=O)=O)c5cccc(Cl)c5)cn4C)cc3)CC2)ccc1-c1cc(C2=CCCN(C(=O)CCn3ccnn3)C2)c(F)c2[nH]c(C(=O)N(C)C)cc12	< 100 nM
COc1cc(N2CCN(CCOCCOCCc3ccc(C(=O)c4[nH]cc(C(=O)NC(CC(N)=O)c5cccc(Cl)c5)c4-c4c(F)ccc(F)c4C)cc3)CC2)ccc1-c1cc(C2=CCCN(C(=O)CCn3ccnn3)C2)c(F)c2[nH]c(C(=O)N(C)C)cc12 (stereo not shown)	< 100 nM
